The values that follow are results of earlier work, collected in patent publication US20100227876A1 (priority 2009, published 2010).

The data set concerns human. The settings on record: cited from earlier work.

As to `Oc1ccc2c3c1O[C@H]1[C@@H](O)CC[C@@]4(O)[C@@H](C2)N(CC2CCC2)CC[C@]314` [nalbuphine], the effective human dose was 5 to 10 mg.
